Measured values as given in ChEMBL document CHEMBL1131427, “Synthesis of imidazo[1,2-a]pyridines as antiviral agents” (J Med Chem, 1998).

Test: Ratio of Cytotoxicity concentration to that of virus-inhibitory concentration.
Type: functional
Method in brief: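 Selectivity index is the 50% cytotoxic concentration in HEL cells divided by the 50% inhibitory concentration against CMV strain AD-169 in HEL cells.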

Q: Which Selectivity index does the source give for `Nc1nc2c(ncn2COC(CO)CO)c(=O)[nH]1` [GANCICLOVIR] here?
A: Its Selectivity index is over 200.
